Values quoted from earlier work in PMC9303367, “Synthesis of Aminoethyl‐Substituted Piperidine Derivatives as σ1 Receptor Ligands with Antiproliferative Properties” (Chemmedchem, 2022).

The chains behind the UniProt entries cited, without tags or fusion partners.
UniProt Q60492, whole entry: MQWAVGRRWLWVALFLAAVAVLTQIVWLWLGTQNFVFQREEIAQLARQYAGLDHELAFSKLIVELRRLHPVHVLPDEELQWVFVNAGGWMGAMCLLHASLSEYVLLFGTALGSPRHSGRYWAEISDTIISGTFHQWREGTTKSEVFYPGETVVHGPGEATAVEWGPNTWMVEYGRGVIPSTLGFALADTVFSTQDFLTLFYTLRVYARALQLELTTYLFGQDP

Target: T1, σ1 receptor (Cavia porcellus, UniProt Q60492)
T1 construct: The thawed membrane preparation of guinea pig brain cortex; tissue Harlan-Winkelmann, Borchen, Germany; host or cells: guinea pig brain (cortex) membrane homogenate
Settings: lead compounds 1–3; cited from earlier work

Structure (SMILES): c1ccc(CNCCC2CCCC(c3ccccc3)O2)cc1 (stereo not shown) [compound 2]
- σ1 : σ2 selectivity: 236
